The results in this text go back to PubChem BioAssay AID1347073 (National Center for Advancing Translational Sciences (NCATS), 2019).

Only a part is listed here, and it is no random draw. Inconclusive results are not listed. Active and inactive are the calls of the source. Calls follow the shape of the dose curve; as a rule, active = well fitted activation curve with a large enough effect; inconclusive = small, poorly fitted or top-dose-only effect; inactive = no such curve, though single readings can be large or run the other way.

A short description of the assay: qHTS of TDP-43 Inhibitors: NCGC Sytravon Library Screen. Also: 0% is about no effect; nearly all actives have a fitted effect of over 55% in size. The conditions noted are these: yeast TDP-43 toxicity rescue, BacTiter-Glo growth, 24 h; at 46.1 µM (top of the series). An excerpt:
The goal of this project is to identify new chemical probes capable of reversing the toxicity associated with TDP-43 which is associated with frontotemporal lobar degeneration and amyotrophic lateral sclerosis. These compounds will provide a complementary approach to deciphering the tangled mechanisms of toxicity and protection that we have uncovered through genome-wide genetic screens and are beginning to uncover in a large-scale proteomics analysis with mass spectroscopy. To this end, a miniaturized assay was developed to be screened against the Molecular Libraries Small Molecule Repository (MLSMR) to discover TDP-43 inhibitors. Please note that in the set-up this yeast-based assay compounds that inhibit as TDP-43, have a read-out as activators. NIH Chemical Genomics Center [NCGC] NIH Molecular Libraries Probe Centers Network [MLPCN] Assay Submitter (PI): Susan Lindquist, Whitehead Institute/MIT MLPCN Grant: R21 NS060957
Dispense 2.5 microL yeast galactose medium per 1536-well plate, pin compound, dispense 2.5 microL TDP-43 expressing yeast in galactose medium at OD600=0.02 (pregrown in raffinose medium to mid-log phase) per well, incubate for 24 hr at 30 deg C, and cell growth will be measured using 5 microL of Bactiter/Glo reagent to entire plate and read using Luminescence Protocol in ViewLux.
Take `O=[N+]([O-])c1cc([N+](=O)[O-])c(-n2nnc3ccccc32)c([N+](=O)[O-])c1`: the growth rescue (activation) was inactive: -12.4%. In the case of `CP(=O)(Nc1cccc(Br)c1)Oc1ccccc1` (stereo unspecified), the growth rescue (activation) is inactive: 4.78%.

On to `CN(C)C(=O)c1c([N+](=O)[O-])cc([N+](=O)[O-])cc1[N+](=O)[O-]`, for which the growth rescue (activation) was inactive: 13.7%. With `COc1ccccc1OP(C)(=O)Nc1ccc(C)c(C)c1` (stereo unspecified), the growth rescue (activation) was inactive: -3.89%. Next, `COc1ccccc1OP(C)(=O)Nc1ccc(Br)cc1` (stereo unspecified): inactive: 29.3%. As to `CCCCCOc1ccc(NP(C)(=O)Oc2ccc(Cl)cc2Cl)cc1` (stereo unspecified), the growth rescue (activation) was inactive: -45.1%.
